The test concerns the target Phosphatidylinositol 4,5-bisphosphate 3-kinase catalytic subunit alpha isoform (Mus musculus, UniProt P42337). Briefly: Biochemical Assay. As to conditions: pH 7.4; 25 °C. How it is done:
Compounds of the present invention were evaluated for potency against PI3-Kα using an in vitro kinase assay. PI3-Kα activity is measured in vitro by determining the level of phosphorylation of the substrate PI(4,5)P2. The formation of product PI(3,4,5)P3 is monitored by binding to the Grip1 PH domain in a ligand displacement fluorescence polarization (FP) assay, in which the TAMRA-labeled PI(3,4,5)P3 complexed with Grip1 PH domain is displaced by PI(3,4,5)P3 formed in the PI3-Kα reaction resulting in a decrease in FP signal.

Sequences of proteins named here, by UniProt entry; tags and fusion partners are left off.
UniProt P42337, whole entry: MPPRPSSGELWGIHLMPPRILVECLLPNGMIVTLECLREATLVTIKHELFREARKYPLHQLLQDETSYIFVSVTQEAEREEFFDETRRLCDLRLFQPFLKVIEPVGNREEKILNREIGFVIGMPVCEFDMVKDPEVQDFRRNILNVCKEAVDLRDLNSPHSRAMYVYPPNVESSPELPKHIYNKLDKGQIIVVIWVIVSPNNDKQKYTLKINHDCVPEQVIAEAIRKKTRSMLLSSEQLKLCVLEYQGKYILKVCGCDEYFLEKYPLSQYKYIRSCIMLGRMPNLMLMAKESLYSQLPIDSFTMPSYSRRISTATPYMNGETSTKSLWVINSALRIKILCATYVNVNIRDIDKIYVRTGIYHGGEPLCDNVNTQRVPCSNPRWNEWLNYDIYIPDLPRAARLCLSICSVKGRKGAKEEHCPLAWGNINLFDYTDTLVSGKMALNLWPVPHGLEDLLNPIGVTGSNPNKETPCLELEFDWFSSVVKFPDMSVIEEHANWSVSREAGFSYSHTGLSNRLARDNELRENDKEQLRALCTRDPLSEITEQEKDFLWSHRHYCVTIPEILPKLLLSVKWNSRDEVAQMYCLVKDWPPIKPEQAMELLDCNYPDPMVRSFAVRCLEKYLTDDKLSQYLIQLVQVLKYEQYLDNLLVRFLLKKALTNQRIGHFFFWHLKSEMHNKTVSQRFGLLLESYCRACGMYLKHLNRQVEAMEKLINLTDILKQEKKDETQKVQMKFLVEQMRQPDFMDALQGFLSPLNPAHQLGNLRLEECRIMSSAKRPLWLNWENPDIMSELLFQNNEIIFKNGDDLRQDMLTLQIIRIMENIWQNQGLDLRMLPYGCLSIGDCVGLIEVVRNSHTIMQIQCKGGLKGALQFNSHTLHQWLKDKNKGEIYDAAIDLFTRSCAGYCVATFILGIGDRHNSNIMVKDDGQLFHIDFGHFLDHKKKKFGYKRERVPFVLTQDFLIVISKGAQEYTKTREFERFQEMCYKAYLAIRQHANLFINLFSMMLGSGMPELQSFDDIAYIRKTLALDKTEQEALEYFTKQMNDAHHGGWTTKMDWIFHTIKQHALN

What is called IC50 is the concentration at which inhibition is half-maximal.

`CCOC(=O)c1cccc(-c2cc3c(C)nc(NC)nc3n(C3CCCC3)c2=O)c1` [US8633204, 141]: 7.08 µM corresponded to half-maximal inhibition (IC50).
For the compound `Cc1nc(N)nc2c1cc(-c1ccc(N(C)C)nc1)c(=O)n2[C@H]1CC[C@@H](O)CC1` [US8633204, 181], 0.012 µM corresponded to half-maximal inhibition (IC50).

The record behind these values is BindingDB's records for patent US8633204 (Pfizer, 2014).
